Test results as given in patent US20100260671A1, “COMPOUNDS AND METHODS FOR THE DIAGNOSIS AND TREATMENT OF AMYLOID ASSOCIATED DISEASES” (THE REGENTS OF THE UNIVERSITY OF CALIFORNIA, priority 2007, published 2010).
Like-named read-outs stand apart in the source and are kept apart here.

The chains behind the UniProt entries cited, without tags or fusion partners. Residues count along the entry.
UniProt P05067, 672-713 limits assumed: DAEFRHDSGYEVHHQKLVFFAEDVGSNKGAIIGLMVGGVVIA

Experiments:
[1] = target: Aβ fibrils (binding of anti-Aβ IgG clone AMY-33) (Homo sapiens, UniProt P05067); experiment: ELISA-based assay: inhibition of anti-Aβ IgG (clone AMY-33) binding to Aβ fibrils; details: same conditions as for clone 6E10
Experimental: An IC50 of 0.4 μM (FIG. 2, panel b) for ThT with this IgG (clone AMY-33) was measured under the same conditions used to assay the first anti-Aβ IgG (clone 6E10). […] No inhibition of the interaction between the IgGs and Aβ fibrils in control experiments using 1-naphthol-4-sulfonate were observed (FIG. 2, panel c).
Excess solutions were then discarded.

[2] = target: Aβ fibrils (binding of anti-Aβ IgG clone 6E10) (Homo sapiens, UniProt P05067); experiment: ELISA-based assay: inhibition of anti-Aβ IgG (clone 6E10) binding to Aβ fibrils

SMILES: Cc1ccc2c(c1)sc(-c1ccc(N(C)C)cc1)[n+]2C.[Cl-] [ThT, Thioflavin T]
- IC50 [1]: 0.4 µM
- IC50 ([2]; read-out: IC50, control procedure with 0.3 μM Aβ peptide, clone 6E10, 0.3 μM solution of Aβ peptide in the control procedure): ~1 µM
- IC50 ([2]; read-out: IC50, fibrils incubated with ThT prior to depositing into wells, clone 6E10, Aβ fibrils 1.3 μM pre-incubated with ThT): 60 µM
- IC50 ([2]; read-out: IC50 for the binding of the anti-Aβ IgG to the Aβ fibrils, clone 6E10, 0.16 μg mL−1, fibrils deposited from 1.3 μM Aβ peptide, then incubated with ThT): 5 µM
